Measurements as given in patent publication US20260116884A1, “PROTAC CHIMERIC COMPOUND, PREPARATION METHOD THEREFOR AND USE THEREOF” (HANGZHOU ZHONGMEIHUADONG PHARMACEUTICAL CO., LTD., priority 2022, published 2026).

Sequences of proteins named here, by UniProt entry; tags and fusion partners are left off.
UniProt Q92918, whole entry: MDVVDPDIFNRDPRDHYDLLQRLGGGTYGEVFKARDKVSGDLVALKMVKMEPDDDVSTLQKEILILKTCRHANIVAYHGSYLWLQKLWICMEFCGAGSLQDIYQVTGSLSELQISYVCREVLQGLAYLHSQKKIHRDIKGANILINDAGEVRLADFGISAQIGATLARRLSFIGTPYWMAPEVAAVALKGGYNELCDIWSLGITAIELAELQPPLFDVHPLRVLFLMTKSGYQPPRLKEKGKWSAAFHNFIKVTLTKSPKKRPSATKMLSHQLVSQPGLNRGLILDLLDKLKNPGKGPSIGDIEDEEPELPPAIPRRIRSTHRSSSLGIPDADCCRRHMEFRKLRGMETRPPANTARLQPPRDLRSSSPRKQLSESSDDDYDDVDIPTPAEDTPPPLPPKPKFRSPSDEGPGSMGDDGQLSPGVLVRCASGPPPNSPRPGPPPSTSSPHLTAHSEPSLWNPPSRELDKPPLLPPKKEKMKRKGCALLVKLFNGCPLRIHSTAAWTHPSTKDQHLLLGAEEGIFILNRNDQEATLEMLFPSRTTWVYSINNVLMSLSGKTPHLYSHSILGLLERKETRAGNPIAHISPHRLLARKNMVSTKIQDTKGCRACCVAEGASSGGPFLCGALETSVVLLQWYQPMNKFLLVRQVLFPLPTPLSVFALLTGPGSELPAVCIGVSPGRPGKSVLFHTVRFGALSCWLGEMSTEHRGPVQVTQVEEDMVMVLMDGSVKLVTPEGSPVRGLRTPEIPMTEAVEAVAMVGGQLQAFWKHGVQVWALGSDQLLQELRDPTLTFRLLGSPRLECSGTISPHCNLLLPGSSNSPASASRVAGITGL

Key:
human HPK1 = human HPK1 (Homo sapiens, UniProt Q92918); test: HPK1 protein degradation assay (WB) in RAMOS cell line; format: cell-based; settings: RAMOS cells, 16 h, Western blot
[1] = tested on: IL2 activation in human PBMC; test: IL2 activity assay (ELISA) in human PBMC; format: cell-based; settings: read-out: IL2 EC50, CD3/CD28 antibody, 24 h

`CCN1CCC(n2cc(-c3c[nH]c4ncc(-c5ccc(N6CCC(CC7CCN(C(=O)c8ccc(C)c(N9CCC(=O)NC9=O)c8)CC7)CC6)cc5)nc34)cn2)CC1` showed a Dmax (human HPK1) of 52.47% and an EC50 [1] of 37.1 nM.
